ChEMBL document CHEMBL1125407, “Noncataleptogenic, centrally acting dopamine D-2 and serotonin 5-HT2 antagonists within a series of 3-substituted 1-(4-fluorophenyl)-1H-indoles” (J Med Chem, 1992)

Sequences of proteins named here, by UniProt entry; tags and fusion partners are left off. A change or cut given only in a name is not applied to a line headed by its entry.
UniProt P30994: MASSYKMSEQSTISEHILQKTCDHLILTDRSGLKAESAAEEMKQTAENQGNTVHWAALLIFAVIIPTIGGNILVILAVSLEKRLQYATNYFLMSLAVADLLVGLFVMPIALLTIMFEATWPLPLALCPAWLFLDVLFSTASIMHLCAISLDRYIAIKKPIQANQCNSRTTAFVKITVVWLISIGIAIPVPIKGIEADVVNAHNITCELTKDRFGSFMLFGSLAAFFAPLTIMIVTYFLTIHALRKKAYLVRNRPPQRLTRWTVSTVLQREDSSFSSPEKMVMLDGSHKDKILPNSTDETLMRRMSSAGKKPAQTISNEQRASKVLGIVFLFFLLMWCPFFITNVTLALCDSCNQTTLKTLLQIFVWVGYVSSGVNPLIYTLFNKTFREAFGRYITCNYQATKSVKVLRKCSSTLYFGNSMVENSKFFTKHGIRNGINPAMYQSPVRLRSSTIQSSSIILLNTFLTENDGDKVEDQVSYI
UniProt P08909: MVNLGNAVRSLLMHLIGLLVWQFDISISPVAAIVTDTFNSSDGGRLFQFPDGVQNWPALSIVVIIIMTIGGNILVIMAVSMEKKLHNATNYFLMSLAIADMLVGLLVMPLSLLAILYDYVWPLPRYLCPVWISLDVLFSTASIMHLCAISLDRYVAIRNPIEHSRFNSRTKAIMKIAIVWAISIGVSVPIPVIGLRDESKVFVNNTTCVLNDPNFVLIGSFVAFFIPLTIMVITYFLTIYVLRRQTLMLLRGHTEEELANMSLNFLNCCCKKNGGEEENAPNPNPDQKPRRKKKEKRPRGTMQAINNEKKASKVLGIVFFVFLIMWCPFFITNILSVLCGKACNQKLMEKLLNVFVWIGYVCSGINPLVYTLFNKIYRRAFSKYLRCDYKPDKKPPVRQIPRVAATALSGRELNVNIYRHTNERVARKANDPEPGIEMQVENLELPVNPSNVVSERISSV
UniProt P14842: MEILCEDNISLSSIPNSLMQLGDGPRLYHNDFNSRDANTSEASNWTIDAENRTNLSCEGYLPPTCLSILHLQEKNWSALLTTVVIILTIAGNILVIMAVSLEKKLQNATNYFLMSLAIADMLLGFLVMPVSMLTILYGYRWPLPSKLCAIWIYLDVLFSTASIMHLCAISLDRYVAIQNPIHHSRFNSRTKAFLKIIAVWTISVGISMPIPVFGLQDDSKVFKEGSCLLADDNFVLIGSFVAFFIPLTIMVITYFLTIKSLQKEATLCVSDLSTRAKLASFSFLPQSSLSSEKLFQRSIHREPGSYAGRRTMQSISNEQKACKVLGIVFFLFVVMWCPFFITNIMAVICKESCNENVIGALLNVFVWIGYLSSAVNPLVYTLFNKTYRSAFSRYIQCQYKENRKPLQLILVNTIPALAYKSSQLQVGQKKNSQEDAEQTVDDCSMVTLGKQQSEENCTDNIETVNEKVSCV

Molecular target: Serotonin 2 (5-HT2) receptor (Rattus norvegicus, UniProt P30994+P08909+P14842)
Assay: Inhibition of [3H]ketanserin binding to rat 5-hydroxytryptamine 2 receptors.
Assay type: protein assay

- IC50: 0.48 nM
SMILES: O=C1NCCN1CCN1CCC(c2cn(-c3ccc(F)cc3)c3ccc(Cl)cc23)CC1 [SERTINDOLE]
